From paper PMC7968374 (Bioorganic & medicinal chemistry, 2021)

Amino acid sequences for entries named in this document (tags omitted). Residues count along the entry.
UniProt P04792, 79-176: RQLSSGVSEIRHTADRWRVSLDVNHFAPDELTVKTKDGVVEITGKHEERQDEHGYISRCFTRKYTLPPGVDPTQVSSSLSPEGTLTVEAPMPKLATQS

Target: Hsp27c (Hsp27 core domain, residues 79–176) (Homo sapiens, UniProt P04792)
[1] = result in words, screened at 250 μM, significant CSP >8 Hz

O=C(Oc1ccc([N+](=O)[O-])cc1[N+](=O)[O-])c1ccc(F)cc1F [Compound 47, 2,4-dinitrophenyl 2,4-difluorobenzoate]
HSQC Affinity: No Binding | binding to Hsp27c by HSQC NMR (in words): abolished binding

O=[N+]([O-])c1ccc(Oc2cccc(F)c2)c([N+](=O)[O-])c1 [Compound 25, 1-(3-fluorophenoxy)-2,4-dinitrobenzene]
HSQC Affinity: No Binding

O=C(O)c1ccc(Oc2ccc([N+](=O)[O-])cc2[N+](=O)[O-])cc1 [Compound 32, 4-(2,4-dinitrophenoxy)benzoic acid]
HSQC Affinity: No Binding

O=[N+]([O-])c1cccnc1Oc1ccc(I)cc1 [Compound 24, 2-(4-iodophenoxy)-3-nitropyridine]
HSQC Affinity [1]: No Binding

Nc1cccc(-c2cccs2)c1 [Compound 1, 3-(thiophen-2-yl)aniline]
binding to Hsp27c by HSQC NMR (in words): neither compound 1 nor 2 bound

O=C(Oc1ccc(F)cc1F)c1ccc([N+](=O)[O-])cc1 [Compound 46, 2,4-difluorophenyl 4-nitrobenzoate]
binding to Hsp27c by HSQC NMR (in words): abolished binding | HSQC Affinity [1]: No Binding

O=[N+]([O-])c1ccc(Oc2ccc(Cl)cc2Cl)c([N+](=O)[O-])c1 [Compound 28, 2,4-dichloro-1-(2,4-dinitrophenoxy)benzene]
HSQC Affinity: No Binding

O=[N+]([O-])c1ccc(Sc2ccc(F)cc2F)c([N+](=O)[O-])c1 [Compound 43, (2,4-difluorophenyl)(2,4-dinitrophenyl)sulfane]
HSQC Affinity: No Binding | binding to Hsp27c by HSQC NMR (in words): removed activity

O=C(O)CCS/C=C\c1ccccc1 [Compound 3b]
binding to Hsp27c by HSQC NMR (in words): weakly bound

O=[N+]([O-])c1ccc(Oc2ccc(C(F)(F)F)cc2)c([N+](=O)[O-])c1 [Compound 29, 2,4-dinitro 1-(4-(trifluoromethyl)phenoxy)-benzene]
HSQC Affinity: No Binding

O=[N+]([O-])c1ccc(Nc2ccc(F)cc2F)c([N+](=O)[O-])c1 [Compound 44, N-(2,4-difluorophenyl)-2,4-dinitroaniline]
HSQC Affinity: No Binding | binding to Hsp27c by HSQC NMR (in words): removed activity

O=C(O)c1csc(-c2cccc(Cl)c2Cl)n1 [Compound 2, 2-(2,3-dichlorophenyl)thiazole-4-carboxylic acid]
binding to Hsp27c by HSQC NMR (in words): neither compound 1 nor 2 bound

O=Cc1ccc(Oc2ccc([N+](=O)[O-])cc2[N+](=O)[O-])cc1 [Compound 31, 4-(2,4-dinitrophenoxy)benzaldehyde]
HSQC Affinity: No Binding

O=[N+]([O-])c1ccc(Oc2ccc(F)c(F)c2F)c([N+](=O)[O-])c1 [Compound 26, 1-(2,4-dinitrophenoxy)-2,3,4-trifluorobenzene]
HSQC Affinity: No Binding

O=[N+]([O-])c1cc([N+](=O)[O-])c(Oc2ccc(F)cc2F)cc1Oc1ccc(F)cc1F [Compound 48, 4,4’-((4,6-dinitro-1,3-phenylene)bis(oxy))bis(1,3-difluorobenzene)]
HSQC Affinity: No Binding

Cc1ccc(Oc2ccc([N+](=O)[O-])cc2[N+](=O)[O-])c(C)c1 [Compound 30, 1-(2,4-dimethylphenoxy)-2,4-dinitrobenzene]
HSQC Affinity: No Binding

O=C(O)CCS/C=C/c1ccccc1 [Compound 3a, (E)-3-(styrylthio)propanoic acid]
binding to Hsp27c by HSQC NMR (in words): did not bind

O=[N+]([O-])c1ccc(Oc2c(F)c(F)cc(F)c2F)c([N+](=O)[O-])c1 [Compound 27, 3-(2,4-dinitrophenoxy)-1,2,4,5-tetrafluorobenzene]
HSQC Affinity: No Binding

O=[N+]([O-])c1cc(Oc2ccc(F)cc2F)ccc1Oc1ccc(F)cc1F [Compound 51]
HSQC Affinity [1]: No Binding

O=[N+]([O-])c1cccnc1Oc1ccc(F)cc1F [Compound 5, 2-(2,4-difluorophenoxy)-3-nitropyridine]
Ligand Efficiency (from HSQC affinity): 0.29 kcal/mol/non-H atom

Where two headings read alike, the source gives them in different places.
